Source: US11246958B2, “Haemostatic compositions” (HAEMOSTATIX LIMITED, priority 2015, dated 2022)

Assays:
[1] = molecular target: T1, purified human fibrinogen (Homo sapiens, UniProt P02675+P02679); assay: Copolymerisation of peptide dendrimers with purified human fibrinogen, clotting time on KC4 Delta coagulation analyser; type: biochemical; conditions: dendrimer below ~0.125 mg/ml, fibrinogen 3 mg/ml
T1 sequence (P02679 27-437 isoform P02679-2 limits assumed): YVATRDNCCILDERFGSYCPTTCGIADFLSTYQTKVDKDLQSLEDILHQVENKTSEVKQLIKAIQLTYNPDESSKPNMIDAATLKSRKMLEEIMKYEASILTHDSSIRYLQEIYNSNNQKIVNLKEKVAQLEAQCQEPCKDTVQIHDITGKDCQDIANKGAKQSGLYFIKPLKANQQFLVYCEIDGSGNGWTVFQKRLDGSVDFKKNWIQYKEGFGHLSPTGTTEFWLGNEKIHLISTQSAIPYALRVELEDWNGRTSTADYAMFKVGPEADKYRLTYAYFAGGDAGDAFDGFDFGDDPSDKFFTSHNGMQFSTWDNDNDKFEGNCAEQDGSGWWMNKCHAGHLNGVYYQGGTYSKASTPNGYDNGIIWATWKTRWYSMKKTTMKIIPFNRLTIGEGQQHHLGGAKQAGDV
T1 sequence (P02675 31-491): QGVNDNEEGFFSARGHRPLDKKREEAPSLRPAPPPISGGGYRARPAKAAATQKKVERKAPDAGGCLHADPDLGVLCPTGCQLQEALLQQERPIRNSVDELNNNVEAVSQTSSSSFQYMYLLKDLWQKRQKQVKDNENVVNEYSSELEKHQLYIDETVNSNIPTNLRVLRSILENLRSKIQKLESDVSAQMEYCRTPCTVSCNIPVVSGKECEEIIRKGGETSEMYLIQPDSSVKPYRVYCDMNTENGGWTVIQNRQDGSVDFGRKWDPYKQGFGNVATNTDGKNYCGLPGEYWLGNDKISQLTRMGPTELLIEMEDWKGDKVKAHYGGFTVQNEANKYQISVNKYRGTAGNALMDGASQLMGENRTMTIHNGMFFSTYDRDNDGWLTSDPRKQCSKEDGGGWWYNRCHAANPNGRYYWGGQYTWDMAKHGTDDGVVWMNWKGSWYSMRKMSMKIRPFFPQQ
T1 sequence (P02671 20-629 partner limits assumed): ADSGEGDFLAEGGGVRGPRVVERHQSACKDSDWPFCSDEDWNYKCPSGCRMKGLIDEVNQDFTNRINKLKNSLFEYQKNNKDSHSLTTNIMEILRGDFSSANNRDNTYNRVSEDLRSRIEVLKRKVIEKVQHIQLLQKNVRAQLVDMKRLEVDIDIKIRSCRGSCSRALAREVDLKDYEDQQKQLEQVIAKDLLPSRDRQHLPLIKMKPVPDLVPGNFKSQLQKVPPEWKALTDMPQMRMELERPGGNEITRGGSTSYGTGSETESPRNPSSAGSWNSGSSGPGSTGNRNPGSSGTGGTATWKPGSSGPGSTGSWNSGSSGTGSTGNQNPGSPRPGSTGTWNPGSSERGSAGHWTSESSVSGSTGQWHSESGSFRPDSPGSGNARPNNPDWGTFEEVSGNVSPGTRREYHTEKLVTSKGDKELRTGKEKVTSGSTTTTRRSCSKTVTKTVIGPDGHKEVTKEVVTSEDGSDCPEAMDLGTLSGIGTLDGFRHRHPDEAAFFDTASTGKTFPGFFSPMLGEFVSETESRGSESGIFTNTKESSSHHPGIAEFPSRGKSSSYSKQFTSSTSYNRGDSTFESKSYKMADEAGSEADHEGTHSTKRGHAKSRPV
Description: The ability of Peptide Dendrimer No. 12 to polymerise fibrinogen was assessed. 30 μl of dendrimer in solution, at concentration ranging from 0.005-2 mg/ml, was added to 100 μl purified human fibrinogen at 3 mg/ml (the level of fibrinogen found in the blood). Polymerisation of fibrinogen was analysed using a Sigma Amelung KC4 Delta coagulation analyser.
The ability of Peptide Dendrimer Nos. 4, 5, 10, 11, and 12 to copolymerise with fibrinogen was assessed using the same method described in Example 2. The concentration of each dendrimer was varied from 0.005-0.5 mg/ml.
The ability of the dendrimers to copolymerise with fibrinogen was assessed using the same method described in Example 2, for a concentration of each dendrimer ranging from 0.005-0.5 mg/ml.
Peptide Conjugate No. 1 or 2 (2 mg/ml) was mixed with Peptide Dendrimer No. 3 or 4, and fibrinogen, and the ability of the mixtures to copolymerise with fibrinogen was assessed using the same method described in Example 2, for a concentration of each dendrimer ranging from 0.025-0.5 mg/ml.

[2] = molecular target: T2, fibrinogen in human plasma (Homo sapiens, UniProt P02675+P02679); assay: Polymerisation of fibrinogen in human plasma by peptide dendrimers; type: biochemical; conditions: 30 μL dendrimer 0.25 mg/ml in 100 μL human plasma, 37° C.
T2 construct: from tissue; host or cells: human plasma
T2 sequence (P02679 27-437 isoform P02679-2 limits assumed): T1 sequence (P02679 27-437 isoform P02679-2 limits assumed)
T2 sequence (P02675 31-491): T1 sequence (P02675 31-491)
T2 sequence (P02671 20-629 partner limits assumed): T1 sequence (P02671 20-629 partner limits assumed)
Description: 30 μL of each dendrimer (at a concentration of 0.25 mg/ml) was added to 100 μL human plasma at 37° C., and polymerisation of fibrinogen was determined using a Sigma Amelung KC4 Delta coagulation analyzer.

In the case of “Peptide Dendrimer No. 10: three-branch dendrimer, three GPRPG peptides each attached by its carboxy-terminal end to the branched core”, the clotting times [1] is reported as “faster clotting times than dendrimer no. 4” and the “ability to polymerise fibrinogen in human plasma” value [2] is reported as “able to polymerise fibrinogen in human plasma”.
